Results as given in patent US11691963B2, “6-heteroaryloxy benzimidazoles and azabenzimidazoles as JAK2 inhibitors” (Ajax Therapeutics, Inc., priority 2020, dated 2023).

By UniProt entry, the sequences of proteins in these tests, tags left out. Residues count along the entry.
UniProt O60674, 849-1124 Y1007F/Y1008F: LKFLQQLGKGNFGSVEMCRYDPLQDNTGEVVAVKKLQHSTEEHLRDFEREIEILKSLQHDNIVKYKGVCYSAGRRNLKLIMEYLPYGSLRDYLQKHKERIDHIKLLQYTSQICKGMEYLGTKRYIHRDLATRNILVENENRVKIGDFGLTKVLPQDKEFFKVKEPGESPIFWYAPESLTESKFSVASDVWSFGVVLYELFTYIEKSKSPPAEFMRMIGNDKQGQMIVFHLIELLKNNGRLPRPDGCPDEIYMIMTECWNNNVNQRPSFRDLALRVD

Molecular target: JAK2 (JH1domain-catalytic, Y1007F,Y1008F) kinase (Homo sapiens (Human), UniProt O60674, Y1007F/Y1008F)
Conditions: read-out: JAK2 Kd

SMILES | Kd [nM]
CC(=O)Nc1cc(Oc2ccc3nc(Nc4cc(N5CCC5)cn(C(C)C)c4=O)n(C)c3c2)ccn1 [Example I-83, N-(4-((2-((5-(azetidin-1-yl)-1-isopropyl-2-oxo-1,2-dihydropyridin-3-yl)amino)-1-methyl-1H-benzo[d]imidazol-6-yl)oxy)pyridin-2-yl)acetamide] | > 5000
CC(=O)Nc1cc(Oc2ccc3nc(Oc4cc(C5CC5)cn(C(C)C)c4=O)n(C)c3c2)ccn1 [Example I-90, N-(4-((2-((5-cyclopropyl-1-isopropyl-2-oxo-1,2-dihydropyridin-3-yl)oxy)-1-methyl-1H-benzo[d]imidazol-6-yl)oxy)pyridin-2-yl)acetamide] | < 10
CC(=O)Nc1cc(Oc2ccc3nc(Oc4cc(C5CC5)cn([C@H]5C[C@@H](O)C5)c4=O)n(C)c3c2)ccn1 [Example I-92, N-(4-((2-((5-cyclopropyl-1-((1s,3s)-3-hydroxycyclobutyl)-2-oxo-1,2-dihydropyridin-3-yl)oxy)-1-methyl-1H-benzo[d]imidazol-6-yl)oxy)pyridin-2-yl)acetamide] | 10 to 50

Same assay, conditions: read-out: JAK2 Kd; JAK2 JH1 domain-catalytic, Y1007F,Y1008F; qPCR readout

Kd [nM] | SMILES
< 10 | CC(=O)Nc1cc(Oc2ccc3nc(Nc4cc(C5CC5)cn([C@H]5C[C@@H](O)C5)c4=O)n(C)c3c2)ccn1 [Example I-73, N-(4-((2-((5-cyclopropyl-1-((1s,3s)-3-hydroxycyclobutyl)-2-oxo-1,2-dihydropyridin-3-yl)amino)-1-methyl-1H-benzo[d]imidazol-6-yl)oxy)pyridin-2-yl)acetamide]
50 to 1000 | CC(=O)Nc1cc(Oc2ccc3nc(Nc4cc(C5CC5)cn([C@H]5C[C@H](C#N)C5)c4=O)n(C)c3c2)ccn1 [Example I-74, N-(4-((2-((1-((1r,3r)-3-cyanocyclobutyl)-5-cyclopropyl-2-oxo-1,2-dihydropyridin-3-yl)amino)-1-methyl-1H-benzo[d]imidazol-6-yl)oxy)pyridin-2-yl)acetamide]
< 10 | CC(=O)Nc1cc(Oc2ccc3nc(Nc4cc(-n5cccn5)cn(C(C)C)c4=O)n(C)c3c2)ccn1 [Example I-80, N-(4-((2-((1-isopropyl-2-oxo-5-(1H-pyrazol-1-yl)-1,2-dihydropyridin-3-yl)amino)-1-methyl-1H-benzo[d]imidazol-6-yl)oxy)pyridin-2-yl)acetamide]
< 10 | CC(=O)Nc1cc(Oc2ccc3nc(Nc4cc(-n5cccn5)cn(C(C)C)c4=O)n(C)c3n2)ccn1 [Example I-81, N-(4-((2-((1-isopropyl-2-oxo-5-(1H-pyrazol-1-yl)-1,2-dihydropyridin-3-yl)amino)-3-methyl-3H-imidazo[4,5-b]pyridin-5-yl)oxy)pyridin-2-yl)acetamide]
< 10 | CC(=O)Nc1cc(Oc2ccc3nc(Nc4cc(C5CC5)nn(C)c4=O)n(C)c3c2)ccn1 [Example I-84, N-(4-((2-((6-cyclopropyl-2-methyl-3-oxo-2,3-dihydropyridazin-4-yl)amino)-1-methyl-1H-benzo[d]imidazol-6-yl)oxy)pyridin-2-yl)acetamide]
< 10 | CC(=O)Nc1cc(Oc2ccc3nc(Nc4cc(C5CC5)nn(C(C)C)c4=O)n(C)c3c2)ccn1 [Example I-85, N-(4-((2-((6-cyclopropyl-2-isopropyl-3-oxo-2,3-dihydropyridazin-4-yl)amino)-1-methyl-1H-benzo[d]imidazol-6-yl)oxy)pyridin-2-yl)acetamide]
< 10 | CC(=O)Nc1cc(Oc2ccc3nc(Oc4cc(C5CC5)cn(C)c4=O)n(C)c3c2C#N)ccn1 [Example I-94, N-(4-((7-cyano-2-((5-cyclopropyl-1-methyl-2-oxo-1,2-dihydropyridin-3-yl)oxy)-1-methyl-1H-benzo[d]imidazol-6-yl)oxy)pyridin-2-yl)acetamide]
< 10 | CC(=O)Nc1cc(Oc2cnc3nc(Nc4cc(C5CC5)cn(C)c4=O)n(C)c3c2C)ccn1 [Example I-98, N-(4-((2-((5-cyclopropyl-1-methyl-2-oxo-1,2-dihydropyridin-3-yl)amino)-1,7-dimethyl-1H-imidazo[4,5-b]pyridin-6-yl)oxy)pyridin-2-yl)acetamide]
